Experimental data: article PMC9683399 (Journal of medicinal chemistry, 2022)

Protein sequences, listed by entry. Tags and fused reporters are not part of them. Residues count along the entry.
UniProt P25440, 74-180: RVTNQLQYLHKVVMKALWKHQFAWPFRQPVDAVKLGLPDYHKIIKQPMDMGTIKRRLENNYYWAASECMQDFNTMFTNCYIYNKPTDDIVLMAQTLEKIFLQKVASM

Molecular target: BRD2 D1 (Homo sapiens, UniProt P25440)

SMILES: Cc1sc2c(c1C)C(c1ccc(Cl)cc1)=N[C@@H](CC(=O)OC(C)(C)C)c1nnc(C)n1-2 [(+)-JQ1]
- binding to BRD2 D1 by ITC: potent binding
